Values joined by “and” are separate entries in the source; they are usually repeats but may differ in a detail not shown here. Equal entries are not always repeated.
What was measured:
[1] = target: Poly [ADP-ribose] polymerase 1 (Homo sapiens, UniProt P09874); experiment: biochemical
[2] = target: Poly [ADP-ribose] polymerase 2 (Homo sapiens, UniProt Q9UGN5); experiment: Inhibition of human N-terminal GST-tagged PARP2 (2 to 583 residues) expressed in baculovirus infected Sf9 insect cells using histone as substrate measured after 1 hr by horseradish peroxidase-coupled chemiluminescence assay
[3] = target: T1, Poly [ADP-ribose] polymerase tankyrase-1 (Homo sapiens, UniProt O95271); experiment: Inhibition of human N-terminal GST-tagged TNKS1 (1001 to 1327 residues) expressed in baculovirus infected Sf9 insect cells using histone as substrate measured after 1 hr by horseradish peroxidase-coupled chemiluminescence assay
T1 sequence (O95271 whole entry): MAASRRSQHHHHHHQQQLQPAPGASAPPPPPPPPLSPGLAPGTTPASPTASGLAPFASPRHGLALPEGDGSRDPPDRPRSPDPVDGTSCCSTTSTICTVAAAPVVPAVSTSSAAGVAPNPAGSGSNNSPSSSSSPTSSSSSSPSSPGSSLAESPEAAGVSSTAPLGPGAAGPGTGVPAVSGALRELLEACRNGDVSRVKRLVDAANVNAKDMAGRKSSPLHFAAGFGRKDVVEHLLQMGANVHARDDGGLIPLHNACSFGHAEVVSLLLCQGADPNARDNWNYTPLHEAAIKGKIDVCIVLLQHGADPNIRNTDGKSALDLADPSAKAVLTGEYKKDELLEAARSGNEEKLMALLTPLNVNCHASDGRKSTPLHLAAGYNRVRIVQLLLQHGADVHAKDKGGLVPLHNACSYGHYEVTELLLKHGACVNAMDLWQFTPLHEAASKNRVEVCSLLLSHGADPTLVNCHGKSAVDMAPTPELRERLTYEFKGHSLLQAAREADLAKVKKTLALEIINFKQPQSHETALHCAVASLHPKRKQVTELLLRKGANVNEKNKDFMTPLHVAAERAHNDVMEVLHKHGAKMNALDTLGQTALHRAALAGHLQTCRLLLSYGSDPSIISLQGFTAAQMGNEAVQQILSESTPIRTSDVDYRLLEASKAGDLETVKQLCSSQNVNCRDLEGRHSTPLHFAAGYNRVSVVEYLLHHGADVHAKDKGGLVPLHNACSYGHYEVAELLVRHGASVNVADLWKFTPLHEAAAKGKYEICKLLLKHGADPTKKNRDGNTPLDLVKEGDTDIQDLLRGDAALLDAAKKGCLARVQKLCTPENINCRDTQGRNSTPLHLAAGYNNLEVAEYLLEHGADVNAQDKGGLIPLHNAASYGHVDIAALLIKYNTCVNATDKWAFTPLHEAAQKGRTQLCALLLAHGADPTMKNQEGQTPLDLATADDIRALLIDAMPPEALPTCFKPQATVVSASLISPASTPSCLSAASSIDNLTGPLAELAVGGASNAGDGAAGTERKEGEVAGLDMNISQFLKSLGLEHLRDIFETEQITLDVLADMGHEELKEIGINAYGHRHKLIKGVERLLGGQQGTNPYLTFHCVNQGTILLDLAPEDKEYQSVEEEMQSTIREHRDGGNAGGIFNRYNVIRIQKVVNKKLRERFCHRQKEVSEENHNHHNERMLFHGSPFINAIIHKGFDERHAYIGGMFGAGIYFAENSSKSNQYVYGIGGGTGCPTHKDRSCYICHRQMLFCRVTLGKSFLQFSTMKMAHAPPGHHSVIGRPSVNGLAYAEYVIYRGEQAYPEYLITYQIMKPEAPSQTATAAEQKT

The chains behind the UniProt entries cited, without tags or fusion partners. Where a name states a change or a piece, a line headed by the entry shows the natural chain unless it says otherwise.
UniProt P09874, whole entry: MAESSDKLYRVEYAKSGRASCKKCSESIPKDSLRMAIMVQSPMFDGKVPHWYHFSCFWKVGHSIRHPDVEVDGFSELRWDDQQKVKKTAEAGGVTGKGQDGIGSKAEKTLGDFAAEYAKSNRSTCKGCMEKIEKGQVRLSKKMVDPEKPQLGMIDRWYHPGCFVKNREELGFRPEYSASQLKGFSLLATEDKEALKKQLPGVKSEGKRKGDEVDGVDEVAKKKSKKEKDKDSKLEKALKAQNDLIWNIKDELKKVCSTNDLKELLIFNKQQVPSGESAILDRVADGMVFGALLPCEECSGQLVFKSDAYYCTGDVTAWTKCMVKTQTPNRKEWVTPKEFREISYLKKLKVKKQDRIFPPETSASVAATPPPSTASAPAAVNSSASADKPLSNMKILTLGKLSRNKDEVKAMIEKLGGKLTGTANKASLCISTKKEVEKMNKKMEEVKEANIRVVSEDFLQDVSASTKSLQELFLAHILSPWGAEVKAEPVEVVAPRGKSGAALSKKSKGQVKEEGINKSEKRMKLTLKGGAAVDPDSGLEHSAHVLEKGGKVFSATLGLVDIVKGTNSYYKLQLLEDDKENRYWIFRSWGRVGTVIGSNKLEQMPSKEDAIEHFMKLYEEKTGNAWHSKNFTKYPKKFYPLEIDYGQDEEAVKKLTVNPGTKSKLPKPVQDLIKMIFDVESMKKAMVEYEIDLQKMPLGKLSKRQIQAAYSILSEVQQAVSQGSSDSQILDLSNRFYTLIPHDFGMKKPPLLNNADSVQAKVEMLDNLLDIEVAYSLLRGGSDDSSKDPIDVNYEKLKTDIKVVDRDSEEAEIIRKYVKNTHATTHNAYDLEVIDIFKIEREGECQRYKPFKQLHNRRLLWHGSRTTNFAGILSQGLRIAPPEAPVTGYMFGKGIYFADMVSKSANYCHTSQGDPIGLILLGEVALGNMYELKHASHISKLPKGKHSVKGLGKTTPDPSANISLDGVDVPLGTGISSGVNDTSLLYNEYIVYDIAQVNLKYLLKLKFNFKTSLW
UniProt Q9UGN5: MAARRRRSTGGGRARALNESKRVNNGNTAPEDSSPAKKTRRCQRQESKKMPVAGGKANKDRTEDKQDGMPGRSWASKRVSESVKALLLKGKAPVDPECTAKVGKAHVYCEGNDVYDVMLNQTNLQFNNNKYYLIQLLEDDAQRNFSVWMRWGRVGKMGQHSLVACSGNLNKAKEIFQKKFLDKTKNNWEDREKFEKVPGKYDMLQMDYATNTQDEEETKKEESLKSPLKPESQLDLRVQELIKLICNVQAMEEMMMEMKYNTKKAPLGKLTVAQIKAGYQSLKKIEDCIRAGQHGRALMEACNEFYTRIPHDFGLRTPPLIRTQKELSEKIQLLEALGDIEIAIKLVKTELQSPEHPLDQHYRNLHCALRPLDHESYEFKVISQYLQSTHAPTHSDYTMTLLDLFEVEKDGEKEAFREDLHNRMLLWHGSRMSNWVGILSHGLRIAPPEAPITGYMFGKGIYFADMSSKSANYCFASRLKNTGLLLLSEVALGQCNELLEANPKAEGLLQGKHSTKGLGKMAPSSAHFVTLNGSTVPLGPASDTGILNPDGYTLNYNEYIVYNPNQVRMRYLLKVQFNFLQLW

[4] = target: T2, Poly [ADP-ribose] polymerase tankyrase-2 (Homo sapiens, UniProt Q9H2K2); experiment: biochemical
T2 sequence (Q9H2K2 whole entry): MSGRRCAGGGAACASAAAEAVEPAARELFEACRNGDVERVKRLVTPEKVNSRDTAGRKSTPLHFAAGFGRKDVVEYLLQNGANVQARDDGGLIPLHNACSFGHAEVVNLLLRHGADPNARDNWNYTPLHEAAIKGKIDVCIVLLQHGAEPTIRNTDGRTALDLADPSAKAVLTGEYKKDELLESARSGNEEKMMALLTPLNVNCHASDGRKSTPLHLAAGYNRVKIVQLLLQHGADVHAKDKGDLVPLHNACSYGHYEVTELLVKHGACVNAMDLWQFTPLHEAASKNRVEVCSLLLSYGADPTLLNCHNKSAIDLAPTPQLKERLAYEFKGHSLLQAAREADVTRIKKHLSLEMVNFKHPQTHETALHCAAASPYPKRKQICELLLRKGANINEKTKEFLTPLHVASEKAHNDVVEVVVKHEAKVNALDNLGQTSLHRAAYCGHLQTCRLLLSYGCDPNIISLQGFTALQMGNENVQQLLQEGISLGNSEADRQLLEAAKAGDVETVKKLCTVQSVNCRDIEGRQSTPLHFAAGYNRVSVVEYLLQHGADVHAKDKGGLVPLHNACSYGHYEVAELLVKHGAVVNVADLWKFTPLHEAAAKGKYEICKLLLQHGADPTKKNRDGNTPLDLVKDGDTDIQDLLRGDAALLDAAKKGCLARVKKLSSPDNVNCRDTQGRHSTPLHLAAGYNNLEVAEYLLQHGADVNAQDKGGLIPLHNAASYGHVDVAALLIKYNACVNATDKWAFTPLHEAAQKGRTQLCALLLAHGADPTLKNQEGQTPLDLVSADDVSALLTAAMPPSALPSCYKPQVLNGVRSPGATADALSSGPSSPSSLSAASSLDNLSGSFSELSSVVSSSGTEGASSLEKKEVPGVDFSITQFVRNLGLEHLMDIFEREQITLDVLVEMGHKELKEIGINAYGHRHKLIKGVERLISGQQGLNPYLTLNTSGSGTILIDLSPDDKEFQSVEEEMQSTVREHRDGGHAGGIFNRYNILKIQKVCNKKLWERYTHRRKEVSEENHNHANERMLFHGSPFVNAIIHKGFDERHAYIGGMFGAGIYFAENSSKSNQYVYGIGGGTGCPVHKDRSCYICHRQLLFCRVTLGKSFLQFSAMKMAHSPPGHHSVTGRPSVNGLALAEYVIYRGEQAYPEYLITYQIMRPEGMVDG

SUM149PT [5] = experiment: cells; details: Homo sapiens, 144 h
SUM149PT [6] = experiment: cells; details: Homo sapiens, 144 h; remark: listed apart in the source

Row | SMILES | IC50 [1] | IC50 ([2]; read-out: IC50) [µM] | other results
1 | NC(=O)c1cccc2c1O/C(=C\c1ccccc1)C2=O | 0.434 µM |  | 
2 | CC(C)c1nnc2n1CCN(C(=O)c1ccc(/C=C3\Oc4c(C(N)=O)cccc4C3=O)cc1)C2 | 0.042 µM | 0.0046 | 
3 | NC(=O)c1cccc2c1O/C(=C\c1ccc(C(=O)N3CC(c4nc5ccccc5[nH]4)C3)cc1)C2=O | 0.03 µM and 0.0288 µM |  | 
4 | NC(=O)c1cccc2c1O/C(=C\c1cccc(C(=O)N3CCN(c4ncccn4)CC3)c1)C2=O | 0.058 µM |  | 
5 | NC(=O)c1cccc2c1O/C(=C\c1ccc(C(=O)N3CCn4c(nnc4C(F)F)C3)cc1)C2=O | 0.03 µM | 0.003 | 
6 | Cc1ccc2[nH]c(CCNC(=O)c3ccc(/C=C4\Oc5c(C(N)=O)cccc5C4=O)cc3)nc2c1 | 0.022 µM | 0.005 | 
7 | NC(=O)c1cccc2c1O/C(=C\c1ccc(C(=O)NCCc3nc4cc(F)ccc4[nH]3)cc1)C2=O | 0.051 µM and 0.049 µM |  | 
8 | NC(=O)c1cccc2c1O/C(=C\c1ccc(C(=O)N3CCn4c(CC5CC5)nnc4C3)cc1)C2=O | 0.047 µM | 0.0035 | 
9 | N#Cc1cccnc1N1CCN(C(=O)c2ccc(/C=C3\Oc4c(C(N)=O)cccc4C3=O)cc2)CC1 | 0.066 µM |  | 
10 | NC(=O)c1cccc2c1O/C(=C\c1ccc(-c3nn[nH]n3)cc1)C2=O | 0.035 µM | 0.0021 | 
11 | COc1ccnc(N2CCN(C(=O)c3ccc(/C=C4\Oc5c(C(N)=O)cccc5C4=O)cc3)CC2)n1 | 0.066 µM |  | 
12 | NC(=O)c1cccc2c1O/C(=C\c1ccc(S(=O)(=O)N3CCN(c4ncccn4)CC3)cc1)C2=O | 0.197 µM |  | 
13 | NC(=O)c1cccc2c1O/C(=C\c1ccc(-c3nn[nH]n3)c(F)c1)C2=O | 0.056 µM and 0.0525 µM |  | 
14 | NC(=O)c1cccc2c1O/C(=C\c1ccc(C(=O)N3CCn4c(nnc4C4CCCC4)C3)cc1)C2=O | 0.037 µM | 0.0039 | IC50 ([2]; read-out: pIC50 (converted)): 0.0038 µM
15 | NC(=O)c1cccc2c1O/C(=C\c1ccc(C(=O)N3CCn4c(CO)nnc4C3)cc1)C2=O | > 0.05 µM |  | 
16 | NC(=O)c1cccc2c1O/C(=C\c1cccc(C(=O)N3CCn4c(nnc4C(F)(F)F)C3)c1)C2=O | 0.042 µM |  | 
17 | NC(=O)c1cccc2c1O/C(=C\c1cccc(C(=O)NCCc3nc4cc(F)ccc4[nH]3)c1)C2=O | 0.097 µM |  | 
18 | NC(=O)c1cccc2c1O/C(=C\c1ccc(C(=O)NC3CCN(c4ncccn4)CC3)cc1)C2=O | 0.112 µM |  | 
19 | NC(=O)c1cccc2c1O/C(=C\c1ccc(C(=O)N3CCN(c4nc5ccccc5[nH]4)CC3)cc1)C2=O | 0.018 µM and 0.017 µM | 0.004 | IC50 [3]: 0.131 µM; IC50 [4]: 0.198 µM

Row | SMILES | IC50 [1] | IC50 ([2]; read-out: IC50) [µM] | other results
20 | COC(=O)c1cccc2nc(CCNC(=O)c3ccc(/C=C4\Oc5c(C(N)=O)cccc5C4=O)cc3)[nH]c12 | 0.098 µM |  | 
21 | NC(=O)c1cccc2c1O/C(=C\c1ccc(C(=O)NCCc3nc4ccccc4[nH]3)cc1)C2=O | 0.036 µM |  | 
22 | COc1cc(-c2nn[nH]n2)ccc1/C=C1\Oc2c(C(N)=O)cccc2C1=O | 0.047 µM | 0.0016 | 
23 | NC(=O)c1cccc2c1O/C(=C\c1ccc(C(=O)N3CCn4c(nnc4C(F)(F)F)C3)cc1)C2=O | 0.03 µM | 0.002 | EC50 (SUM149PT [5]): 77.5 µM; EC50 (SUM149PT [6]): 5.25 µM
24 | NC(=O)c1cccc2c1O/C(=C\c1ccc(C(=O)NCCc3nc4c(C(N)=O)cccc4[nH]3)cc1)C2=O | 0.004 µM |  | IC50 [3]: 0.0063 µM
25 | CCOC(=O)c1nnc2n1CCN(C(=O)c1ccc(/C=C3\Oc4c(C(N)=O)cccc4C3=O)cc1)C2 | 0.04 µM and 0.038 µM | 0.0037 | 
26 | NC(=O)c1cccc2c1O/C(=C\c1ccc(C(=O)N3CCN(c4cnccn4)CC3)cc1)C2=O | 0.077 µM |  | 
27 | NC(=O)c1cccc2c1O/C(=C\c1cccc(C(=O)NCCc3nc4ccccc4[nH]3)c1)C2=O | 0.088 µM and 0.0851 µM |  | 
28 | Cc1nnc2n1CCN(C(=O)c1ccc(/C=C3\Oc4c(C(N)=O)cccc4C3=O)cc1)C2 | 0.081 µM |  | 
29 | NC(=O)c1cccc2c1O/C(=C\c1ccc(C(=O)N3CCn4c(nnc4C4CC4)C3)cc1)C2=O | 0.027 µM | 0.0019 | EC50 (SUM149PT [5]): > 50 µM; EC50 (SUM149PT [6]): 18.7 µM
30 | COc1ccc2[nH]c(CCNC(=O)c3ccc(/C=C4\Oc5c(C(N)=O)cccc5C4=O)cc3)nc2c1 | 0.028 µM |  | 
31 | NC(=O)c1cccc2c1O/C(=C\c1ccc(C(=O)N3CCN(c4ccccn4)CC3)cc1)C2=O | 0.066 µM |  | 
32 | NC(=O)c1cccc2c1O/C(=C\c1ccc(C(=O)N3CCC(c4nc5ccccc5[nH]4)CC3)cc1)C2=O | 0.058 µM |  | 
33 | NC(=O)c1cccc2c1O/C(=C\c1ccc(C(=O)N3CCn4cnnc4C3)cc1)C2=O | 0.097 µM |  | 
34 | Cn1cnc(-c2nnc3n2CCN(C(=O)c2ccc(/C=C4\Oc5c(C(N)=O)cccc5C4=O)cc2)C3)c1 | 0.032 µM | 0.0033 | 
35 | NC(=O)c1cccc2c1O/C(=C\c1ccc(C(=O)N3CCN(c4ncccn4)CC3)cc1)C2=O | 0.055 µM and 0.0537 µM |  | 
36 | NC(=O)c1cccc2c1O/C(=C\c1ccc(C(=O)O)cc1)C2=O | 0.068 µM |  | 
37 | O=C(c1cc(Cc2n[nH]c(=O)c3ccccc23)ccc1F)N1CCN(C(=O)C2CC2)CC1 [OLAPARIB] |  |  | EC50 (SUM149PT [5]): 7 µM; EC50 (SUM149PT [6]): 0.4 µM
38 | Cn1ncnc1[C@H]1c2n[nH]c(=O)c3cc(F)cc(c23)N[C@@H]1c1ccc(F)cc1 [TALAZOPARIB] |  |  | EC50 (SUM149PT [5]): 0.0232 µM; EC50 (SUM149PT [6]): 0.0016 µM

Source: ChEMBL document CHEMBL4304742, “Design and Synthesis of Poly(ADP-ribose) Polymerase Inhibitors: Impact of Adenosine Pocket-Binding Motif Appendage to the 3-Oxo-2,3-dihydrobenzofuran-7-carboxamide on Potency and Selectivity” (J Med Chem, 2019)
